This passage reports IC50 results from patent publication US12357680B2, “Inhibition of histone methyl transferases to treat cancer” (Albert-Ludwigs-Universitat Freiburg, priority 2018, dated 2025).

The chains behind the UniProt entries cited, without tags or fusion partners.
UniProt O96028, whole entry E1099K: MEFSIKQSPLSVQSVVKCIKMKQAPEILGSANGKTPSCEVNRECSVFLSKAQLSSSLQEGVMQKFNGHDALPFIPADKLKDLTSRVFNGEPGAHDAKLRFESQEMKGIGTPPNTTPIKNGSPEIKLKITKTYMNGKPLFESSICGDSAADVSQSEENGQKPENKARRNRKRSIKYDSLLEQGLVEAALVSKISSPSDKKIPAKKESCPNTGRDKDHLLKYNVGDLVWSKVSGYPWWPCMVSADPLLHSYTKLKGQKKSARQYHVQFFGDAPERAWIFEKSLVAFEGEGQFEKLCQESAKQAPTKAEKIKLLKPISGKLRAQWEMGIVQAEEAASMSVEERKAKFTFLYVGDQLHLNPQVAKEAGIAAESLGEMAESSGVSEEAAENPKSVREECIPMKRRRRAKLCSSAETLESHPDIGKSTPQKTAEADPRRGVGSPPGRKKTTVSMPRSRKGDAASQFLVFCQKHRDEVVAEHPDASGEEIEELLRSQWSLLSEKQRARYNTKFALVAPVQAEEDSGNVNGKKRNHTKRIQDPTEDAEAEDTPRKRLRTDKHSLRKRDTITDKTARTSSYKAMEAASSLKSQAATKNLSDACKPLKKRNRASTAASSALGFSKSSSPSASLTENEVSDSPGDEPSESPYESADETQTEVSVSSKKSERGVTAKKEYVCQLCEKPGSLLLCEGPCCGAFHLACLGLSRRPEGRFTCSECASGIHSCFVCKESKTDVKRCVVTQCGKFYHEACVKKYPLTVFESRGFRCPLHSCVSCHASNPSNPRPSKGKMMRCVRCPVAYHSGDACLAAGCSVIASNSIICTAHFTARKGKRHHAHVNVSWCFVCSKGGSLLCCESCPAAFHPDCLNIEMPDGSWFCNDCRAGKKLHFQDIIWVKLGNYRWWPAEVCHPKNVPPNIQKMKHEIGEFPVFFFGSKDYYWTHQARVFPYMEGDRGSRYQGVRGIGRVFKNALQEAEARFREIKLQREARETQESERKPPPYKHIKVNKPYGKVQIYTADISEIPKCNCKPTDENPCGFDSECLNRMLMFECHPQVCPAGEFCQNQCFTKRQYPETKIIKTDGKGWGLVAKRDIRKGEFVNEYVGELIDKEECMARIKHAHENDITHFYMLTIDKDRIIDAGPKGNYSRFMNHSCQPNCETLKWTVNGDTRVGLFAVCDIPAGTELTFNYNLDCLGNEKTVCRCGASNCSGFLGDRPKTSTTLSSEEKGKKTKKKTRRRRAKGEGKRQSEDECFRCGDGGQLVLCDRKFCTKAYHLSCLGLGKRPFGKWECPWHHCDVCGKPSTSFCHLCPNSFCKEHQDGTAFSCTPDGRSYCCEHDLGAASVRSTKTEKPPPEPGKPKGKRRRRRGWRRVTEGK
UniProt O96028, whole entry T1150A: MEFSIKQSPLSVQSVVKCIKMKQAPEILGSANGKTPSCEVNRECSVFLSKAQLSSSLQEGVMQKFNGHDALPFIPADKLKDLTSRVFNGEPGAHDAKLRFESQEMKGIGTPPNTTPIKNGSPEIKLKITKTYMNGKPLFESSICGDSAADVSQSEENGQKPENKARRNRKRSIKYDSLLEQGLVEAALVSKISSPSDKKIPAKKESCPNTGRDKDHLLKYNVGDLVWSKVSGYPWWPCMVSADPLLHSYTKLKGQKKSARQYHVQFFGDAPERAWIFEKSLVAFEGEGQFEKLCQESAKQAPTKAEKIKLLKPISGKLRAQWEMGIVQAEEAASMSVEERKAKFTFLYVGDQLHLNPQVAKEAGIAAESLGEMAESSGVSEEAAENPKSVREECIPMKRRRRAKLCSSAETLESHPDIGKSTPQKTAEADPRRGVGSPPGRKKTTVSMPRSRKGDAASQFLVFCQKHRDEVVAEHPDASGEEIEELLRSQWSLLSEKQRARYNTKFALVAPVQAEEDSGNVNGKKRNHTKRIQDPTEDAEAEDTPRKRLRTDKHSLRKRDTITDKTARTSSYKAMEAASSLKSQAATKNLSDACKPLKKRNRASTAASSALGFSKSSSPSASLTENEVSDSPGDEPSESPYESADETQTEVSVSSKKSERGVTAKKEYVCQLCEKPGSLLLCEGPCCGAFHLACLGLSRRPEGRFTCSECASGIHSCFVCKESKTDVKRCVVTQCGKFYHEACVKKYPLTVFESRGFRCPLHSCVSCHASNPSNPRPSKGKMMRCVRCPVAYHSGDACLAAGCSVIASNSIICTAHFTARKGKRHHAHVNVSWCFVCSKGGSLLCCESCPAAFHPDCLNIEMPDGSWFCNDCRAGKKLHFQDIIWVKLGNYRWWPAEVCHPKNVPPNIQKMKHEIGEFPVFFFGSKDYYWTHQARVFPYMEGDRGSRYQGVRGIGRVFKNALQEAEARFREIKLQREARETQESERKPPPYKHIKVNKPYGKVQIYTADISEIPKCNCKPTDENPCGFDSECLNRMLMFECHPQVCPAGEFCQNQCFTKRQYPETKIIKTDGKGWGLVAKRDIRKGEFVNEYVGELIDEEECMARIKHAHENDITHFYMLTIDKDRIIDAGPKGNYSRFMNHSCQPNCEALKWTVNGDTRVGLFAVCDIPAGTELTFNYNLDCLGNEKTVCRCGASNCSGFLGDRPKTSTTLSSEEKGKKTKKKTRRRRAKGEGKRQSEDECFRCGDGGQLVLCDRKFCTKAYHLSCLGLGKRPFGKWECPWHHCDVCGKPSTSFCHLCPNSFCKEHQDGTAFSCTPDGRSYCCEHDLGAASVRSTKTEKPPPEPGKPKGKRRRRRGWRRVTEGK

Among the targets are NSD2 (Homo sapiens (Human), UniProt O96028); NSD2 (E1099K) (Homo sapiens (Human), UniProt O96028, E1099K); NSD2 (T1150A) (Homo sapiens (Human), UniProt O96028, T1150A).
What all share (test): Methyltransferase panel, 10-dose IC50 mode
Assay type in all cases: biochemical

`Nc1ncnc2c1ncn2[C@@H]1O[C@H](CSCC[C@H](N)C(=O)O)[C@@H](O)[C@H]1O` [SAH, S-(5′-Adenosyl)-L-homocysteine]: the IC50 (commonly the midpoint of a concentration-inhibition curve) against NSD2 amounted to 3.05 µM; on NSD2 (E1099K), 1570 nM; on NSD2 (T1150A), 1440 nM.
